These results are taken from PubChem BioAssay AID624169 (The Scripps Research Institute Molecular Screening Center, 2012).

By UniProt entry, the sequences of proteins in these tests, tags left out.
UniProt P35363, whole entry: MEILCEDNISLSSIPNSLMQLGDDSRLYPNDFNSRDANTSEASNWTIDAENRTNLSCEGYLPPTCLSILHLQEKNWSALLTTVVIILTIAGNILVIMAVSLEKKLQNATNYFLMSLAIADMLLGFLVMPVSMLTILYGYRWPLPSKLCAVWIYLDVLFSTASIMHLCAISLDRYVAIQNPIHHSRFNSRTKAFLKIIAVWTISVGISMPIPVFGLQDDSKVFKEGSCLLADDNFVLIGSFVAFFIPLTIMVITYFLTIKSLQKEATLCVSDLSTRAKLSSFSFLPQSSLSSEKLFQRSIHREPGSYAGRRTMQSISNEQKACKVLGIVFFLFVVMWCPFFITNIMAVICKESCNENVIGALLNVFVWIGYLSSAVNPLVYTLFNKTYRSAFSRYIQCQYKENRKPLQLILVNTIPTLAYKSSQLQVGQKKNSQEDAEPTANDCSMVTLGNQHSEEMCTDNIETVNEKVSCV

Each structure is given as a SMILES string. This is a selection; strong and weak results do not stand in their true shares. Calls of active or inactive are those of the source.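 How the source made its calls: active means activation above a run cutoff, the mean activation of all tested compounds plus 3 SD (cut at about 14% in these data); inactive means the rest.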

This test concerns the target 5-hydroxytryptamine receptor 2A (Mus musculus) (UniProt P35363). The experiment in a line: mouse Htr2a agonists via beta-arrestin recruitment, primary screen, cell-based, luminescence (AID 624169).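 Further: 0% = plate median of compound wells and 100% = 30 µM serotonin.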 Particulars: CHO-K1 mHTR2A beta-arrestin complementation, at 7.6 µM, active compounds read high, percent of 30 µM serotonin response. (Activated receptors often draw arrestin, which recruitment assays turn into a signal.)
On to `O=C(NCC1(N2CCCCC2)CCCCC1)c1cncc(Br)c1`, for which the activation was inactive: 1.78%.

Take `CN1CCC(Nc2cccc(F)c2)CC1`: the activation was inactive: -6.9%. Turning to `COc1ccc(C(c2nnnn2C2CCCC2)N2CCC(n3c(=O)[nH]c4ccccc43)CC2)cc1` (stereo not drawn), the activation is inactive: -1.78%. On to `Cc1ccc(C(=O)NCC2(N(C)C)CCCCC2)o1`, for which the activation is inactive: 4.52%. Consider `CCCOc1ccc(C(=O)NCC2(N(C)C)CCCCC2)cc1OC`, for which the activation is inactive: -8.19%. As to `CC(C)c1ccc(NC2CCN(C(=O)OC(C)(C)C)CC2)cc1`, the activation was inactive: -0.02%.

Regarding `CCCCn1nnnc1C(c1ccccc1OC(F)(F)F)N1CCC(n2c(=O)[nH]c3ccccc32)CC1` (stereo not drawn), the activation was inactive: 7.21%. The result for `COc1ccc(CN(CCCl)CCCl)cc1Cl` reads inactive: -0.36%; that for `CN(C)c1cccc(C(=O)NCC2(N3CCCCC3)CCCCC2)c1`, inactive: -8.1%; that for `COc1cc(OC)c(C(=O)NCC2(N(C)C)CCCCC2)cc1OC`, inactive: -2.53%. The result for `CCC(c1nnnn1C(C)(C)C)N1CCC(n2c(=O)[nH]c3ccccc32)CC1` (stereo not drawn) reads inactive: 2.65%; that for `O=C(NCC1(N2CCOCC2)CCCCC1)c1cc(F)c(F)cc1Cl`, inactive: 6.66%; that for `CCCCn1nnnc1C(c1ccnc2ccccc12)N1CCC(n2c(=O)[nH]c3ccccc32)CC1` (stereo not drawn), inactive: 0.12%.

Regarding `O=C(NCC1(N2CCCCC2)CCCCC1)c1cccc(C(F)(F)F)c1`, the activation was inactive: -3.52%.

On to `O=C(NCC1(N2CCOCC2)CCCCC1)c1cc(=O)[nH]c2ccccc12`, for which the activation is inactive: -1.52%.

Turning to `COc1cc(C(=O)NCC2(N3CCCCC3)CCCCC2)ccc1OC(F)F`, the activation was inactive: -16.2%. As to `CCCCn1nnnc1C(c1cccc2ccccc12)N1CCC(n2c(=O)[nH]c3ccccc32)CC1` (stereo not drawn), the activation was inactive: 2.48%. As to `COc1ccc(NC2CCN(C(=O)OC(C)(C)C)CC2)cc1`, the activation is inactive: -1.59%. Turning to `CC(C)c1ccc(C(=O)NCC2(N3CCOCC3)CCCCC2)cc1`, the activation is inactive: -3.45%.

For the molecule `CN1CCN(CCOC(=O)C(O)(c2ccccc2)c2ccccc2)CC1`, the activation is inactive: -3.56%. As for `CC(C)(C)n1nnnc1C(c1ccccc1OC(F)(F)F)N1CCC(n2c(=O)[nH]c3ccccc32)CC1` (stereo not drawn), the activation was inactive: 4.6%.

`O=C(NCC1(N2CCCCC2)CCCCC1)c1ccc(OC(F)F)cc1`: the activation was inactive: -7.88%. Take `CCN1CCC(Nc2ccc(Cl)cc2)CC1`: the activation is inactive: -4.32%. `N#CC1(Nc2ccccc2)CCN(CCc2ccccc2)CC1`: the activation is inactive: -2.13%. In the case of `O=c1[nH]c2ccccc2n1C1CCN(C(c2ccccc2OC(F)(F)F)c2nnnn2C2CCCC2)CC1` (stereo not drawn) it was inactive: 4.75%; in that of `CSc1ccc(C(=O)NCC2(N3CCOCC3)CCCCC2)cc1`, inactive: 1.7%; in that of `O=C(NCC1(N2CCCCC2)CCCCC1)c1cccc([N+](=O)[O-])c1`, inactive: -5.75%. For the molecule `O=c1[nH]c2ccccc2n1C1CCN(C(c2ccccc2)c2nnnn2C2CCCCC2)CC1` (stereo not drawn), the activation is inactive: -4.13%.

In the case of `COc1cc(C(=O)NCC2(N(C)C)CCCCC2)ccc1OC(F)F`, the activation was inactive: -11.1%. Consider `CCOC(=O)N1CCC(Nc2cccc(C)c2)CC1`, for which the activation is inactive: -4.91%. Turning to `O=c1[nH]c2ccccc2n1C1CCN(C(c2cccc3ccccc23)c2nnnn2C2CCCC2)CC1` (stereo not drawn), the activation was inactive: -1.95%. Consider `CC(C)(C)n1nnnc1C(c1ccccc1)N1CCC(n2c(=O)[nH]c3ccccc32)CC1` (stereo not drawn), for which the activation is inactive: -5.24%. In the case of `O=C1CCN(Cc2ccccc2)CC1` it was inactive: -0.03%; in that of `CCOc1ccc(C)cc1CN(CCCl)CCCl`, inactive: -4.85%; in that of `O=C(NCC1(N2CCCCC2)CCCCC1)c1ccc(F)cc1`, inactive: -6.33%. As for `CCCCOc1ccc(C(=O)NCC2(N3CCOCC3)CCCCC2)cc1`, the activation is inactive: -11.6%. `O=P1(N(CCCl)CCCl)SCCCS1`: the activation was inactive: 5.25%. Regarding `CCCCn1nnnc1C(c1cc2ccccc2o1)N1CCC(n2c(=O)[nH]c3ccccc32)CC1` (stereo not drawn), the activation was inactive: 0.88%. On to `CCOC(=O)N1CCC(Nc2ccc(F)cc2)CC1`, for which the activation is inactive: 4.4%.

Consider `COc1ccc(NC2CCN(CCc3ccccc3)CC2)c(OC)c1`, for which the activation is inactive: -3.98%. The result for `O=c1[nH]c2ccccc2n1C1CCN(C(c2ccccc2OC(F)(F)F)c2nnnn2C2CCCCC2)CC1` (stereo not drawn) reads inactive: -2.67%; that for `O=C(NCC1(N2CCCCC2)CCCCC1)c1ccc(Cl)nc1`, inactive: -2.51%. On to `Cc1cc(C)cc(N(C(=O)c2ccccc2)C2CCN(C(=O)OC(C)(C)C)CC2)c1`, for which the activation is inactive: -10.1%. For `O=C(NCC1(N2CCOCC2)CCCCC1)c1cc2ccccc2o1`, the activation was inactive: -6.84%.

Consider `O=c1[nH]c2ccccc2n1C1CCN(C(c2cc3ccccc3o2)c2nnnn2C2CCCCC2)CC1` (stereo not drawn), for which the activation is inactive: 0.05%.

For the molecule `O=C(OC1CN2CCC1CC2)C1c2ccccc2Oc2ccccc21` (stereo not drawn), the activation was inactive: -4.1%. The result for `N#CC1(Nc2ccccc2)CCN(Cc2ccccc2)CC1` reads inactive: 0.56%. For the molecule `O=C(NCC1(N2CCCCC2)CCCCC1)c1ccc(Cl)s1`, the activation was inactive: -10.8%. For the molecule `COc1ccc(Cl)cc1C(=O)NCC1(N2CCOCC2)CCCCC1`, the activation was inactive: -3.39%. Take `CCOC(=O)N1CCC(Nc2ccc(OC)cc2)CC1`: the activation is inactive: 0.19%. The result for `CCCCn1nnnc1C(c1ccc(OC)cc1)N1CCC(n2c(=O)[nH]c3ccccc32)CC1` (stereo not drawn) reads inactive: 1.2%. Take `COc1ccc(C(=O)NCC2(N3CCCCC3)CCCCC2)cc1`: the activation is inactive: -13.4%. `CCC(c1nnnn1C1CCCC1)N1CCC(n2c(=O)[nH]c3ccccc32)CC1` (stereo not drawn): the activation is inactive: -1.57%. `COc1ccc(C(=O)NCC2(N3CCCCC3)CCCCC2)c(OC)c1OC`: the activation is inactive: -1.97%. Consider `CC(C)(C)OC(=O)N1CCC(N(C(=O)c2ccccc2)c2ccc(F)cc2)CC1`, for which the activation was inactive: -5.57%.

Consider `O=C(NCC1(N2CCCCC2)CCCCC1)c1ccc(=O)[nH]c1`, for which the activation is inactive: 2.92%.

Turning to `CCCCn1nnnc1C(c1cccs1)N1CCC(n2c(=O)[nH]c3ccccc32)CC1` (stereo not drawn), the activation is inactive: 3.41%. Consider `CCCCn1nnnc1C(CC)N1CCC(n2c(=O)[nH]c3ccccc32)CC1` (stereo not drawn), for which the activation is inactive: 1.79%.

Turning to `O=C(NCC1(N2CCCCC2)CCCCC1)c1cccs1`, the activation was inactive: -7.77%. The result for `CSc1ccccc1C(=O)NCC1(N2CCCCC2)CCCCC1` reads inactive: 3.16%. As to `Cc1cccc(NC2(C#N)CCN(Cc3ccccc3)CC2)c1`, the activation is inactive: -1.62%. On to `COc1cccc(C(=O)N(c2cc(C)cc(C)c2)C2CCN(C(=O)OC(C)(C)C)CC2)c1`, for which the activation was inactive: 4.54%. The result for `COc1cccc(C(c2nnnn2C2CCCC2)N2CCC(n3c(=O)[nH]c4ccccc43)CC2)c1OC` (stereo not drawn) reads inactive: 4.63%; that for `COc1cc(OC)cc(C(=O)NCC2(N3CCOCC3)CCCCC2)c1`, inactive: -5.26%; that for `CCC(CO)(C(=O)OC1CN2CCC1CC2)c1ccccc1` (stereo not drawn), inactive: 3.66%.

For `CN1CCC(Nc2ccc(Cl)cc2)CC1`, the activation was inactive: -1.92%. Turning to `CCOc1ncccc1C(=O)NCC1(N2CCOCC2)CCCCC1`, the activation is inactive: 1.71%. For `CN1CCC(Nc2ccc(F)c(Cl)c2)CC1`, the activation was inactive: -3.71%. In the case of `CC(C)(C)OC(=O)N1CCC(Nc2ccccc2)CC1` it was inactive: 4.35%; in that of `NN(c1ccccc1)C1CCN(CCc2ccccc2)CC1`, inactive: -10.9%.

`O=C(O)C1(Nc2ccccc2)CCN(Cc2ccccc2)CC1`: the activation is inactive: -7.36%. `CCCOc1ccc(C(=O)NCC2(N(C)C)CCCCC2)cc1`: the activation was inactive: -9.46%.

Take `O=c1[nH]c2ccccc2n1C1CCN(C(c2cc3ccccc3o2)c2nnnn2C2CCCC2)CC1` (stereo not drawn): the activation is inactive: 5.07%.

As for `Cc1ccccc1NC1(C#N)CCN(Cc2ccccc2)CC1`, the activation was inactive: 2.43%.

With `CC(C)(C)n1nnnc1C(c1ccnc2ccccc12)N1CCC(n2c(=O)[nH]c3ccccc32)CC1` (stereo not drawn), the activation is inactive: 1.41%. Take `COc1ccc(C(c2nnnn2C2CCCCC2)N2CCC(n3c(=O)[nH]c4ccccc43)CC2)cc1` (stereo not drawn): the activation was inactive: -1.7%. The result for `CCN1CCC(Nc2cccc(F)c2)CC1` reads inactive: -2.73%. On to `O=C(NCC1(N2CCCCC2)CCCCC1)c1ccco1`, for which the activation was inactive: -3.91%. In the case of `Cn1c(=O)[nH]cc(N(CCCl)CCCl)c1=O` it was inactive: 8.27%; in that of `CN(C)c1ccc(C(=O)NCC2(N3CCCCC3)CCCCC2)cc1`, inactive: -1.9%. Take `CC(=O)N(c1ccccc1)C1CCNCC1`: the activation was inactive: 3.3%.

Regarding `COc1cccc(C(c2nnnn2C2CCCCC2)N2CCC(n3c(=O)[nH]c4ccccc43)CC2)c1OC` (stereo not drawn), the activation is inactive: -1.92%.

For `CCC(c1nnnn1C1CCCCC1)N1CCC(n2c(=O)[nH]c3ccccc32)CC1` (stereo not drawn), the activation is inactive: -1.82%. For `O=c1[nH]c2ccccc2n1C1CCN(C(c2ccnc3ccccc23)c2nnnn2C2CCCCC2)CC1` (stereo not drawn), the activation is inactive: -5.24%.

As for `COc1cc(OC)cc(C(=O)NCC2(N3CCCCC3)CCCCC2)c1`, the activation is inactive: -18.3%. In the case of `Cc1ccc(C(=O)NCC2(N3CCCCC3)CCCCC2)o1` it was inactive: 0.65%; in that of `Fc1ccccc1NC1CCN(Cc2ccccc2)CC1`, inactive: -3.42%. In the case of `Cc1ccc(NC2(C#N)CCN(Cc3ccccc3)CC2)cc1`, the activation is inactive: 4.62%.

As for `CN(C)C1(CNC(=O)c2cccc(C#N)c2)CCCCC1`, the activation was inactive: -0.81%. In the case of `c1ccc(CN2CCC(Nc3ccccc3)CC2)cc1` it was inactive: -0.88%; in that of `CCCN1CCC(Nc2cc(OC)cc(OC)c2)CC1`, inactive: -3.93%. As to `O=c1[nH]c2ccccc2n1C1CCN(C(c2ccccc2)c2nnnn2C2CCCC2)CC1` (stereo not drawn), the activation is inactive: -1.62%. As to `Cc1cc(N(CCCl)CCCl)ccc1C=O`, the activation was inactive: -3.18%. Regarding `CC(C)(C)n1nnnc1C(c1cccc2ccccc12)N1CCC(n2c(=O)[nH]c3ccccc32)CC1` (stereo not drawn), the activation was inactive: 8.58%.

With `N#Cc1ccc(C(=O)NCC2(N3CCCCC3)CCCCC2)cc1`, the activation is inactive: -7.17%. The result for `CC(C)(C)OC(=O)N1CCC(N(C(=O)c2ccccc2)c2ccc(Cl)cc2)CC1` reads inactive: -14.3%. The result for `COc1cccc(C(c2nnnn2C(C)(C)C)N2CCC(n3c(=O)[nH]c4ccccc43)CC2)c1OC` (stereo not drawn) reads inactive: -2.7%; that for `CCOC(=O)N1CCC(Nc2ccc(C)cc2)CC1`, inactive: 9.93%. Turning to `N/C(=N\O)c1c(N)no[n+]1[O-]`, the activation was inactive: -3.61%. As to `O=C(OC1CN2CCC1CC2)C1c2ccccc2C=Cc2ccccc21` (stereo not drawn), the activation is inactive: 0.54%. In the case of `O=c1[nH]c2ccccc2n1C1CCN(C(c2cccs2)c2nnnn2C2CCCC2)CC1` (stereo not drawn), the activation was inactive: 4.18%. For the molecule `CCCCn1nnnc1C(c1cccc(OC)c1OC)N1CCC(n2c(=O)[nH]c3ccccc32)CC1` (stereo not drawn), the activation is inactive: 3.35%. As for `CCCCn1nnnc1C(c1ccccc1)N1CCC(n2c(=O)[nH]c3ccccc32)CC1` (stereo not drawn), the activation was inactive: 3.44%. Turning to `COc1cc(C(=O)NCC2(N3CCOCC3)CCCCC2)cc(OC)c1C`, the activation was inactive: -6.24%. `O=C(NCC1(N2CCOCC2)CCCCC1)c1cc(Br)ccc1Cl`: the activation was inactive: -7.81%. Turning to `O=c1[nH]c2ccccc2n1C1CCN(C(c2cccs2)c2nnnn2C2CCCCC2)CC1` (stereo not drawn), the activation was inactive: 2.03%.

With `COc1ccc(C(=O)NCC2(N3CCOCC3)CCCCC2)cc1OC`, the activation was inactive: 0.58%. As to `O=c1[nH]c2ccccc2n1C1CCN(C(c2ccnc3ccccc23)c2nnnn2C2CCCC2)CC1` (stereo not drawn), the activation is inactive: 3.5%.
